# Source: patent publication US20230020342A1, “METHOD FOR PRODUCING POLYOL-BASED ESTERS, IN PARTICULAR POLYGLYCEROL ESTERS, FROM HYDROXY CARBOXYLIC ACIDS” (IOI Oleo GmbH, priority 2019, published 2023)
# Test system: pancreatin (Panzytrat 40,000)
# Assay: Cleavage experiments with pancreatin in water, followed by acid number
# Settings: individual esters in pure form, 50° C.
# Experimental: The pancreatin is used in the form of the commercially available product Panzytrat® 40,000 from the Allergan company. The whole mixture is stirred on a hot plate at 50° C.; the course of the reaction is determined and monitored by continuously recording the acid number over time.
substance,measurement,value
3-hydroxybutyric acid tetra-diglycerol ester,cleavage by pancreatin to free 3-hydroxybutyric acid (3-BHB-FS),cleaved by pancreatin to the free 3-hydroxybutyric acid
